In patent US12012387B2, “Triazine compound and use thereof” (priority 2018, dated 2024):

Experiments:
Assay type in all cases: cell-based
[1] = tested on: Staphylococcus aureus (KCTC 1621); settings: Gram-positive bacteria; 37° C., 12 hours
Protocol: (§1) To confirm the antibacterial activity, a minimal inhibitory concentration (MIC) value, which is a minimum concentration at which fungus bodies are not divided, was measured. Specifically, the strains disclosed in the following table 1 were purchased, incubated in each medium up to a mid-log phase, diluted to a fungus body concentration of 2×10^5 cells/100 μl, and inoculated into a micro titrate plate (Nunc, USA). […] A control group was treated with melittine by the same method as above, so as to determine an MIC value for each strain.

[2] = tested on: Escherichia coli (KCTC1682); settings: Gram-negative bacteria; 37° C., 12 hours
Protocol: as §1

[3] = tested on: Pseudomonas aeruginosa (KCTC 1637); settings: Gram-negative bacteria; 37° C., 12 hours
Protocol: as §1

[4] = tested on: Staphylococcus epidermidis (KCTC 1917); settings: Gram-positive bacteria; 37° C., 12 hours
Protocol: as §1

[5] = tested on: human red blood cells; test: Hemolytic action (erythrocyte hemolytic activity)
Protocol: To confirm the hemolytic action, the erythrocyte hemolytic activity (%) measured by the following method was calculated. Specifically, human red blood cells were diluted in physiological saline solution (PBS, pH 7.4) to a concentration of 8%, and each of the triazine compounds of the following example was treated at a concentration of 0 to 300 μM/well, so as to be reacted at 37° C. for one hour. Then, an amount of hemoglobin contained in the supernatant obtained by centrifugation at 1,000×g was identified by measuring the absorbance at a wavelength of 414 nm. As a reference for the degree of cell destruction, a control group was treated with 1% Triton X-100 (Sigma, USA) and reacted at 37° C. for one hour, after which the absorbance of the obtained supernatant was measured. […] Erythrocyte hemolytic activity (%)=(Absorbance A−Absorbance B)/(Absorbance C−Absorbance B)×100 [Equation 2]
[In Equation 2, Absorbance A represents the absorbance of the reaction solution treated with each triazine compound measured at a wavelength of 414 nm; Absorbance B represents the absorbance of the reaction solution treated with PBS measured at a wavelength of 414 nm; and Absorbance C represents the absorbance of the reaction solution treated with 1% Triton X-100 measured at a wavelength of 414 nm.]

Structure (SMILES): CC[C@H](C)[C@H](NC(=O)CN)C(=O)NCC(=O)N[C@@H](C)C(=O)N[C@H](C(=O)N[C@@H](CC(C)C)C(=O)N[C@@H](CCCCN)C(=O)N[C@H](C(=O)N[C@@H](CC(C)C)C(=O)N[C@H](C(=O)N[C@H](C(=O)NCC(=O)N[C@@H](CC(C)C)C(=O)N1CCC[C@H]1C(=O)N[C@@H](C)C(=O)N[C@@H](CC(C)C)C(=O)N[C@H](C(=O)N[C@@H](CO)C(=O)N[C@@H](Cc1c[nH]c2ccccc12)C(=O)N[C@H](C(=O)N[C@@H](CCCCN)C(=O)N[C@@H](CCCNC(=N)N)C(=O)N[C@@H](CCCCN)C(=O)N[C@@H](CCCNC(=N)N)C(=O)N[C@@H](CCC(N)=O)C(=O)N[C@@H](CCC(N)=O)C(N)=O)[C@@H](C)CC)[C@@H](C)CC)[C@@H](C)O)[C@@H](C)O)C(C)C)C(C)C [Melittin]
- MIC Staphylococcus aureus (KCTC 1621) [1]: 2.5 µM (≈ 7.12 µg/mL)
- MIC Escherichia coli (KCTC1682) [2]: 2.5 µM (≈ 7.12 µg/mL)
- MIC Pseudomonas aeruginosa (KCTC 1637) [3]: 5 µM (≈ 14.2 µg/mL)
- MIC Staphylococcus epidermidis (KCTC 1917) [4]: 5 µM (≈ 14.2 µg/mL)
- hemolysis ([5]; concentration of 80 μM/well): 100%
- MHC ([5]; human red blood cells, 37° C., one hour): 4 µM

In brackets after ≈: the same amount, converted by molar mass.
